IC50 data for one compound are collected here from ChEMBL document CHEMBL1133408, “5-Arylamino-2-methyl-4,7-dioxobenzothiazoles as inhibitors of cyclin-dependent kinase 4 and cytotoxic agents” (Bioorg Med Chem Lett, 2000).

Protein sequences, listed by entry. Tags and fused reporters are not part of them. Lines headed by an entry give the natural chain unless they say otherwise; changes in a name come on top.
UniProt P11802: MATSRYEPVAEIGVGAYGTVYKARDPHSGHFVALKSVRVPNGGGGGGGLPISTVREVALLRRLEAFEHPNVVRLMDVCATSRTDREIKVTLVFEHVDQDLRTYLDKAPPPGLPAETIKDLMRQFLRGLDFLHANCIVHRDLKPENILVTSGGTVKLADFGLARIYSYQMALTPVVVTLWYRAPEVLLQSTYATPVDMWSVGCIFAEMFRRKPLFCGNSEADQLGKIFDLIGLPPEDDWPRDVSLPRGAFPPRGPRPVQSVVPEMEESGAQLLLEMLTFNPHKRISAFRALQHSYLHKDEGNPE

The assay concerns the target Cyclin-dependent kinase 4 (Homo sapiens, UniProt P11802). As to the kind of experiment: Inhibition of Cyclin-dependent kinase 4 (CDK4/cyclin Dl).

Bounds are passed on as bounds.

With `Cn1cnc2c(NCc3ccccc3)nc(NCCO)nc21` [OLOMOUCINE], the IC50 (as a rule, the concentration that gives 50% inhibition) was over 200 µM.
